KDM4E inh: blocks human JMJD2E demethylase activity | B2RXH2 | JMJD2E catalytic domain, FDH-coupled NADH fluorescence (FDH is formaldehyde dehydrogenase) | Potency, µM (series often up to 57.1 µM), without a hit: at the top dose activity change, negative = inhibition, most hits filed as inhibitors | 230,000 compounds, 1.6% hits; active = well fitted inhibition curve with a large enough effect, not every such curve was filed as active; inconclusive = small, poorly fitted or top-dose-only effect, or another doubt; inactive = no such curve, though single readings can be large or run the other way;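 note: potency is the fitted concentration of half-maximal effect; 0% = wells with enzyme and -100% = buffer wells without enzyme; nearly all actives have a fitted effect of over 50% in size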
Sfp inh: blocks B. subtilis Sfp PPTase activity; Q9F4F7; Biochemical Sfp PPTase activity, qHTS; Potency, µM, for the others: max response, negative = inhibition, most hits filed as inhibitors; actives 3.5% (n = 310,000); AID 1490; active = well fitted inhibition curve with a large enough effect; inconclusive = small, poorly fitted or top-dose-only effect, or another doubt; inactive = no such curve, though single readings can be large or run the other way;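 also: the enzyme is Sfp with the accession as filed and its product quenches rhodamine fluorescence; potency is read from the fitted curve at half-maximal effect; 0% = enzyme reaction without inhibitor and -100% = no enzyme wells; top concentration of the series not given in the record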
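Fluorescence-quenching assay with 15 nM Sfp, 5 uM rhodamine-CoA and 12.5 uM BHQ-2-labelled ybbR peptide in pH 7.6 Hepes/MgCl2 buffer. Enzyme was pre-incubated with compound for 15 min at room temperature. Rate was taken from the 30-min fluorescence change (525/598 nm).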
G9a block: blocks human histone lysine methyltransferase G9a. Q96KQ7. G9a H3K9 monomethylation, AlphaScreen, 2 h. Potency, µM (top dose mostly 102 µM), inactives show at the highest dose activity, negative = inhibition, usual class: inhibitors. 350,000 compounds, 8.8% hits. AID 504332; note: potency is the fitted concentration of half-maximal effect; % is set by controls: 0 for no effect and ±100 for the full control effect; nearly all actives have a fitted effect of over 75% in size
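Signal arises when biotinylated H3K9 peptide, once monomethylated, bridges streptavidin donor and antibody-captured acceptor beads. Enzyme at 20 nM was preincubated 15 min with test compounds; peptide 500 nM and SAM 20 uM then reacted for 2 h.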
miR-21 reporter: raises the signal of a miR-21 reporter | Potency, µM (highest dose often 38.3 µM), without a hit: at the top dose reporter change, positive = more light | HeLa miR-21 FLuc reporter, luciferase, 48 h | 340,000 tested, under 10 active; active = well fitted rising curve with a large enough effect; inconclusive = small, poorly fitted or top-dose-only effect; inactive = no such curve, though single readings can be large or run the other way;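 further: % of control where 0% means no effect; miR-21 action dims this reporter so a rising signal means less miR-21 action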
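Using DMEM plus 10% FBS, HeLa miR-21-FLuc cells are incubated with test compounds (final up to about 40uM) for 48 hours; firefly luciferase signal is then imaged following reagent-mediated lysis.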
LMNA splice mod: modulators of lamin A splicing; HeLa LMNA splicing GFP/RFP minigene ratio, 48 h; Potency, µM (doses to about 46.1 µM), for the others: at the top dose ratio change, negative = inhibition, hits mostly inhibitors; 200,000 compounds, 0.01% hits; AID 1487; active = well fitted inhibition curve with a large enough effect in the signal ratio, with a control signal flat, not every such curve was filed as active; inconclusive = small, poorly fitted or top-dose-only effect, or effect the other way, or a change in a side signal; the % refers to the signal ratio; note: potency is the fitted concentration of half-maximal effect; % is set by controls: 0 for no effect and ±100 for the full control effect
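S3 HeLa stable clones carrying a lamin A-EGFP splicing minigene plus DsRed2 were seeded at 600 cells/well in Opti-MEM with 2% FBS, pin-dosed and incubated 48 h at 37°C. Acumen cytometry (488 nm) gave the GFP/RFP total-intensity ratio.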
ALDH1A1 inh: inhibitors of human aldehyde dehydrogenase 1A1; Potency, µM (series often up to 75.3 µM), inactives show at the top dose activity, negative = inhibition, actives largely listed as inhibitors; 220,000 compounds, 7.3% hits; Purified ALDH1A1, NADH fluorescence, propionaldehyde substrate; P00352; AID 1030; active = well fitted inhibition curve with a large enough effect, not every such curve was filed as active; inconclusive = small, poorly fitted or top-dose-only effect, or another doubt; inactive = no such curve, though single readings can be large or run the other way;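 note: potency is the fitted concentration of half-maximal effect; plate controls were no enzyme wells and a reference inhibitor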
The depositor's hits bear a star; i = inactive; ? = inconclusive; nt = not tested or not shown; ! = not confirmed by another sample; [ ] = another dose, or the depositor's remark. The list is not random: actives were taken first. Their share in the collection is about 13%. Unless noted, calls come from the whole dose curve; as a rule, active = well fitted curve in the direction sought with a large enough effect; inconclusive = small, poorly fitted or top-dose-only effect, or another doubt; inactive = no such curve, though single readings can be large; an effect the other way counts as inactive or inconclusive.

Each structure is followed by: KDM4E inh | Sfp inh | G9a block | miR-21 reporter | LMNA splice mod | ALDH1A1 inh
- O=C1c2ccccc2C(Nc2ccc(S(=O)(=O)N3CCCCCC3)cc2)N1c1ccccn1 (stereo unspecified)
  0% | -14% | ? | -2% | -2% | 0.79µM*
- Cn1c(=O)oc2cc(S(=O)(=O)N3CCCC(C(=O)Nc4ccccn4)C3)ccc21 (stereo unspecified)
  5% | 14% | 10% | 0% | ? | 2%
- CC12CCCCC1N(O)CN2O (stereo unspecified)
  6% | -7% | 7.9µM* | -2% | -7% | -8%
- CCN(CC)c1ccc(CN(C)CCc2ccc(OC)c(OC)c2)cc1
  -15% | -7% | ? | -12% | 1% | 13µM*
- COc1ccc(CCN(C)Cc2ccc(F)cc2F)cc1OC
  ? | -24% | 10µM* | -1% | 12% | ?
- COc1ccc(CCn2c(O)c(C=Nc3ccc(F)cc3)c(=O)[nH]c2=O)cc1OC
  i | -13% | nt | -2% | 5%[46 µM] | ?
- COc1ccccc1CN1CCCC2(CCN(C(=O)Oc3ccccc3)CC2)C1
  nt | 16% | -5%[12.7 µM] | nt | nt | -10%
- COC(=O)CN1CN(c2ccccc2)C2(CCN(Cc3ccc4ccccc4c3)CC2)C1=O
  3% | 71µM* | nt | nt | nt | -13%
- CCCc1[nH]nc2c1C1(C(=O)N(Cc3ccccc3)c3ccccc31)C(C(=O)OC)=C(N)O2 (stereo unspecified)
  1% | -12% | 50µM* | 20% | 0% | -13%
- CC(C)(C)c1[nH]nc2c1C(c1ccoc1)C(C#N)=C(N)O2 (stereo unspecified)
  0% | 7% | 7%[59 µM] | -1% | -6% | 16µM*

In a second layout: results already given.
| Molecule | KDM4E inh | Sfp inh | G9a block | miR-21 reporter | LMNA splice mod | ALDH1A1 inh |
| --- | --- | --- | --- | --- | --- | --- |
| CCN(CC)c1ccc(CN(C)CCc2ccc(OC)c(OC)c2)cc1 | -15% | -7% | ? | -12% | 1% | 13µM* |
| COC(=O)CN1CN(c2ccccc2)C2(CCN(Cc3ccc4ccccc4c3)CC2)C1=O | 3% | 71µM* | nt | nt | nt | -13% |
| O=C1c2ccccc2C(Nc2ccc(S(=O)(=O)N3CCCCCC3)cc2)N1c1ccccn1 (stereo unspecified) | 0% | -14% | ? | -2% | -2% | 0.79µM* |
| COc1ccccc1CN1CCCC2(CCN(C(=O)Oc3ccccc3)CC2)C1 | nt | 16% | -5%[12.7 µM] | nt | nt | -10% |
| CCCc1[nH]nc2c1C1(C(=O)N(Cc3ccccc3)c3ccccc31)C(C(=O)OC)=C(N)O2 (stereo unspecified) | 1% | -12% | 50µM* | 20% | 0% | -13% |

(next part)
Each structure is followed by: KDM4E inh | Sfp inh | G9a block | miR-21 reporter | LMNA splice mod | ALDH1A1 inh
- N#CC1=C(N)Oc2n[nH]c(-c3cccs3)c2C1c1ccsc1 (stereo unspecified)
  ? | -3% | ? | -4% | -1% | -4%
- CCC(N)C(O)c1ccc(O)c(O)c1 (stereo unspecified)
  14µM* | -8% | ? | nt | nt | -9%
- CNC[C@H](O)c1ccc(O)c(OC)c1
  -5%[25.5 µM] | 10% | -9%[21.5 µM] | nt | -14% | 6%[20.9 µM]
- Cc1ccc(C)c(N2CCN(c3ncnc4onc(C)c34)CC2)c1
  nt | nt | -9%[59 µM] | ? | ? | nt
- CCc1c(C)nc(N)nc1N1N=C1SCC(=O)OC
  0% | 22% | 22%[12.7 µM] | 5% | 14%[46 µM] | 4%
- COC(=O)CSC1=NN1c1cc(C)nc(N)n1
  -10% | -7% | 50µM* | 0% | nt | 6%
- O=[N+]([O-])c1cc(O)c(O)c([N+](=O)[O-])c1
  10µM* | ? | 7.9µM*! | nt | -17% | ?
- O=[N+]([O-])c1cc(-n2cnnn2)c(O)c([N+](=O)[O-])c1
  2% | 11% | 50µM* | 5% | nt | nt
- O=C(C1CC(=O)N(C2CCCCCCC2)C1)N1CCC2(CC1)OCCO2 (stereo unspecified)
  -1% | -4% | -12%[59 µM] | -11% | 3% | 25µM*
- Cc1ccc(C(=O)C2CN(C)CC2C(=O)c2ccc(C)cc2)cc1 (stereo unspecified)
  2% | 17% | -5% | -39% | 1% | 0%
- Cc1ccc(C(=O)C2CN3CCC2CC3)cc1 (stereo unspecified)
  0% | 4% | ? | -3% | ? | 28µM*
- O=C1NC(=O)C(=Cc2cccc(OCCOc3ccccc3)c2)C(=O)N1
  nt | 45µM* | 35µM* | -46% | nt | nt
- Cc1ccc(OCCOc2cccc(C=C3C(=O)NC(=O)NC3=O)c2)c(C)c1
  nt | 50µM* | 28µM* | -45% | nt | nt
- O=C1NC(=O)C(=Cc2ccc(OCCOc3ccc([N+](=O)[O-])cc3)cc2)C(=O)N1
  28µM* | 50µM* | 22µM* | -6% | ? | 18µM*
- Oc1ccc2c3c1O[C@H]1c4c(c5ccccc5n4Cc4ccccc4)C[C@]4(O)[C@H](C2)N(CC2CC2)CC[C@@]314
  3% | -10% | nt | nt | nt | -6%
- CCCCNC(=O)/C(C#N)=c1\s/c(=C\c2ccccc2OC(F)F)c(=O)n1CCCOC
  -9% | -9% | 24%[59 µM] | -3% | -14% | ?
- O=C(NC1CCCCC1)c1cn(CCN2CCOCC2)c2cc(Cl)ccc2c1=O
  nt | 3% | nt | nt | nt | nt
- c1cc(CN2CCCC3(CCNCC3)C2)ccn1
  nt | 1% | -9%[12.7 µM] | nt | nt | ?
- c1ccc(N2CCN(c3ncnc4c3nc3n4CCCC3)CC2)cc1
  nt | nt | -31%[59 µM] | ? | -6%[46 µM] | nt
- COc1ccc(N2CCN(c3ncnc4c3nc3n4CCCCC3)CC2)cc1
  nt | nt | 11µM* | 3% | -13%[46 µM] | nt
- CCCCN1CCC(O)(c2ccccc2)C(C(=O)c2ccccc2)C1 (stereo unspecified)
  5% | 8% | ? | -4% | ? | 0.11µM*
- Clc1c(Cl)c(Cl)c(Cl)c(Cl)c1Cl
  nt | 10% | nt | nt | nt | nt
- Cc1ccc(Cl)cc1N1CCN(CCN)CC1
  -1% | 11% | 7%[12.7 µM] | 5% | -15% | 28µM*
- CCOC(=O)c1c(C)[nH]c(C)c1S(=O)(=O)NCC(=O)N1CCN(c2cc(Cl)ccc2C)CC1
  nt | nt | ? | 14% | nt | nt
- COc1ccc(CCNC(=O)CCS(=O)(=O)c2ccc3c(c2)oc(=O)n3C)cc1OC
  nt | 18% | 64% | 0% | 6%[46 µM] | nt
- O=C1CCC[C@H]2[C@@H]3CCCN4CCC[C@H](CN12)[C@H]34
  nt | 19% | 38%[59 µM] | nt | nt | -5%
- N#CC1=C(N)Oc2n[nH]c(-c3cccs3)c2C1c1ccco1 (stereo unspecified)
  ? | ? | ? | -6% | 21% | ?
- Cc1nn(Cc2ccccc2)c2c1C(c1ccco1)C(C#N)=C(N)O2 (stereo unspecified)
  -7% | -24% | ? | 7% | 3% | 28µM*
- O=[N+]([O-])C(Br)Br
  nt | nt | nt | nt | nt | 1.4µM*
- O=C1NC(=O)C(Sc2ccccc2[N+](=O)[O-])C(=O)N1
  nt | 20µM* | 2.8µM* | -5% | nt | nt
- Cc1ccccc1[N+](=O)[O-]
  nt | nt | 13%[0.501 µM] | nt | nt | 0%
- CC/C=C\C/C=C\C/C=C\C/C=C\C/C=C\CCCC(=O)NC(C)C(=O)O (stereo unspecified)
  11% | -11% | nt | nt | nt | -16%
- O=C1CC2OCC=C3CN4CC[C@@]56c7ccccc7N1C5C2C3CC46 (stereo partly specified)
  -1% | 7% | -32%[2.33 µM] | nt | nt | 10%
- Brc1cccc(CNCCc2ccc3c(c2)OCO3)c1
  nt | ? | nt | -10% | nt | nt
- c1ccc(CNCCc2ccc3c(c2)OCO3)nc1
  ? | -4% | 1.8µM* | -9% | 2% | -10%
- COc1cccc(CNCCc2cccc(F)c2)c1OC
  nt | -28% | -9%[0.501 µM] | -12% | nt | nt
- CCOc1cc(CNCCc2cccc(F)c2)ccc1OC
  nt | -9% | 22µM* | -9% | nt | nt
- Fc1ccc(CNCCc2ccccc2)cc1
  32µM* | -20% | ? | -14% | -8%[46 µM] | ?
- Fc1cccc(CCNCc2ccccn2)c1
  ? | 56µM* | 1.6µM* | -10% | 9% | -9%
- c1ccc(CCN2CCOCC2)nc1
  nt | nt | nt | nt | nt | -6%[13.5 µM]

High-throughput results from PubChem BioAssay.
